Data taken from patent US6787569B1, “Therapeutic guanidines” (Cambridge NeuroScience, Inc., priority 1994, dated 2004).

Columns and labels:
[1] = tested on: depolarization-induced 3H-glutamate release from brain nerve terminals; assay: Inhibition of 3H-glutamate release, high [K+] depolarization, rapid superfusion of synaptosomes; format: biochemical; conditions: rat brain synaptosomes; for % Inhibition of ^3H-Glu Rel @ 1 μM: 1 μM compound; for % Inhibition of ^3H-Glu Rel @ 0.3 μM: 0.3 μM compound
[2] = tested on: veratridine-induced 3H-glutamate release from brain nerve terminals (voltage-activated presynaptic Na channels); assay: Inhibition of veratridine-induced 3H-glutamate release, rapid superfusion of synaptosomes; format: biochemical; conditions: 3 μM compound; 50 μM veratridine-induced release; rat brain synaptosomes

Row | Substance | % Inhibition of ^3H-Glu Rel @ 1 μM [1] [%] | % Inhibition of ^3H-Glu Rel @ 0.3 μM [1] [%] | other results
1 | N-(5-Acenaphthyl)-N′-(indolinyl)guanidine.mesylate [Example 29] |  |  | % Inhibition of ^3H-Glu Rel @ 3 μM ([1]; 3 μM compound): 22%
2 | N,N′-Bis-(3-(1′-methyl-2′-phenyl)ethyl)guanidine.HCl [Example 94] | 66 |  | 
3 | N-(4-sec-Butylphenyl)-N-(4-tert-butylbenzyl)-N′-(4-propylpiperidinyl)guanidine.HCl [Example 76] |  | 45 | 
4 | N-(3-Naphthylmethyleneoxyphenyl)-N′-(4-tert-butylphenyl)guanidine.mesylate [Example 103] |  | 50 | 
5 | N-(1-Naphthylmethyl)-N-(4-tert-butylbenzyl)guanidine.HCl [Example 52] |  |  | % Inhibition of ^3H-Glu Rel @ 3 μM (*veratridine-induced glutamate release assay) [2]: 55* %
6 | N,N′-(sec-Butylphenyl)-N′-(2-phenoxyethyl)guanidine.HCl [Example 45] | 57 |  | 
7 | N-(5-Acenaphthyl)-N′-(1-benz[cd]indolinyl)guanidine.HCl [Example 117] | 39 |  | 
8 | N,N′-bis(benzyloxyphenyl)guanidine |  | 46 | 
